Literature values, collected in PMC11924319, “Nanobody-Targeted Conditional Antimicrobial Therapeutics” (ACS Nano, 2025).

Conditions: intravenous formulation, phase III

murepavadin [POL]
clinical safety outcome: increased incidence of acute kidney injury
